Laboratory results: PubChem BioAssay AID588358 (NMMLSC, 2011)
The list shows a part of the results, in another mix than the full data. Some of these compounds have results that are not shown, active ones among them. Active and inactive are the calls of the source.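 Rule for the calls: active = binding more than 3 SD below its plate's average and above zero; inconclusive = below that plate limit but binding exactly zero; inactive = the rest.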

Chains of the proteins cited; added tags and fusions are not shown.
UniProt P32926, whole entry, looked up: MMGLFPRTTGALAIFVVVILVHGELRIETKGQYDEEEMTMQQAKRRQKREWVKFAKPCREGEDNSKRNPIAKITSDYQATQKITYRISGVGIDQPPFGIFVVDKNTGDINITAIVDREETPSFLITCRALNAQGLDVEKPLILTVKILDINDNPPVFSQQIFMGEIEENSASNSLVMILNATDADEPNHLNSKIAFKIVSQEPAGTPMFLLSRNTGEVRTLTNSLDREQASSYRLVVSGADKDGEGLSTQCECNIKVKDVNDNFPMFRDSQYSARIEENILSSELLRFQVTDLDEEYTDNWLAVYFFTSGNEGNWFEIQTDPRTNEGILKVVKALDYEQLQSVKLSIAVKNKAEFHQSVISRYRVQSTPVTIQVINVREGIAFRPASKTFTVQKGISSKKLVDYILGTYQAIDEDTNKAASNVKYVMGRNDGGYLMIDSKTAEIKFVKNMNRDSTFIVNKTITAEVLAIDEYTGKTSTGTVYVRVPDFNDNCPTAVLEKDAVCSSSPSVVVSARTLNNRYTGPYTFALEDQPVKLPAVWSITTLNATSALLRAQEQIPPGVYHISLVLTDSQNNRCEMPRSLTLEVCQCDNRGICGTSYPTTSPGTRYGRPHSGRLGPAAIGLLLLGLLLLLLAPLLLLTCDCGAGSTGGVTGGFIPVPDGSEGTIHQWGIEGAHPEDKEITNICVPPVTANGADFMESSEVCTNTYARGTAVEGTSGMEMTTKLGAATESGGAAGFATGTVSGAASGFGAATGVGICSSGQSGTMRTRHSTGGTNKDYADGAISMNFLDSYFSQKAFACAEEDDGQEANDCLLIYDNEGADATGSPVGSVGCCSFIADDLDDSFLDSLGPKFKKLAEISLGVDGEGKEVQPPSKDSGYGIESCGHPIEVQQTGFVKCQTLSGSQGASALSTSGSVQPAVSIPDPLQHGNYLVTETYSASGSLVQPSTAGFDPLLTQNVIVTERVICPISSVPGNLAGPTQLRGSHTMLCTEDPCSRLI

Biological target: Desmoglein-3 (Homo sapiens) (UniProt P32926)
Assay: blockers of anti-DSG3 scFv binding – biochemical, bead-based, flow cytometry, scFv-GFP, primary screen (AID 588358);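 note: hits lower antibody fragment binding to DSG3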
Details: DSG3-coupled beads, at 10 µM, active compounds read low

| SMILES | binding (percent of control) |
| --- | --- |
| CN(C)C1(CNC(=O)c2ccc(Br)cc2)CCCCC1 | inactive: 113% |
| COc1cc(C(=O)NCC2(N(C)C)CCCCC2)c([N+](=O)[O-])cc1OC | inactive: 105% |
| COc1ccc(Cl)cc1C(=O)NCC1(N(C)C)CCCCC1 | inactive: 99.5% |
| O=C(OC1CN2CCC1CC2)C(CO)(c1ccccc1)c1ccccc1 (configuration not stated) | inactive: 109% |
| C=C(C)C#CC(O)(C(=O)OC1CCN(C)CC1)c1ccccc1 (configuration not stated) | inactive: 102% |
| COc1ccc(Br)c(C(=O)NCC2(N3CCCCC3)CCCCC2)c1 | inactive: 108% |
| O=C(OCCN1CCCC1)C(O)(c1ccccc1)c1ccccc1 | inactive: 118% |
| CC(C)Oc1ccc(C(=O)NCC2(N(C)C)CCCCC2)cc1 | inactive: 101% |
| CN(C)c1cccc(C(=O)NCC2(N(C)C)CCCCC2)c1 | inactive: 99.2% |
| O=C(NCC1(N2CCCCC2)CCCCC1)c1cc([N+](=O)[O-])ccc1Cl | inactive: 108% |
| CN1[C@@H]2CC[C@H]1CC(OC(=O)C(O)(c1ccccc1)c1ccccc1)C2 (some centres not stated) | inactive: 91% |
| COc1cc(SC)ccc1C(=O)NCC1(N(C)C)CCCCC1 | inactive: 99.2% |
| CCN(CC)CC(C)C(C)OC(=O)C(O)(c1ccccc1)c1ccccc1 (configuration not stated) | inactive: 85.4% |
| Cc1ccc(C(=O)NCC2(N3CCCCC3)CCCCC2)cc1 | inactive: 116% |
| CN(C)c1ccc(C(=O)NCC2(N(C)C)CCCCC2)cc1 | inactive: 97.8% |
| CN(C)C1CCCC1OC(=O)C(O)(c1ccccc1)c1ccccc1 (configuration not stated) | inactive: 102% |
| Cc1ccccc1C(=O)NCC1(N2CCCCC2)CCCCC1 | inactive: 100% |
| O=C(NCC1(N2CCCCC2)CCCCC1)c1cc(F)c(F)cc1Cl | inactive: 96.8% |
| C=CCN1CCN(CCOC(=O)C(O)(c2ccccc2)c2ccccc2)CC1 | inactive: 100% |
| COc1ccc(C(=O)NCC2(N(C)C)CCCCC2)cc1 | inactive: 89.2% |
| CCN1CCCC(OC(=O)C2(O)c3ccccc3C=Cc3ccccc32)C1 (configuration not stated) | inactive: 104% |
| Cc1cc(C(=O)NCC2(N3CCCCC3)CCCCC2)ccc1[N+](=O)[O-] | inactive: 111% |
